In PMC6411902, “RNF126 Quenches RNF168 Function in the DNA Damage Response” (Genomics, Proteomics & Bioinformatics, 2018):

Molecular target: T1, His-RNF168 (human)
T1 construct: RNF168, full length cDNA inserted into the SacI and XhoI sites of pET-28a; also called recombinant His-RNF168; bacterially-produced His-RNF168; source: E. coli, recombinant
Experiment: pull-down; bacterially-produced GST-RNF126 as bait; bacterially-produced His-RNF168
Details: both partners purified

binding result: binds
B1: GST-RNF126 (natural protein, human, UniProt Q9BV68 1-311, looked up)
chain: MAEASPHPGRYFCHCCSVEIVPRLPDYICPRCESGFIEELPEETRSTENGSAPSTAPTDQSRPPLEHVDQHLFTLPQGYGQFAFGIFDDSFEIPTFPPGAQADDGRDPESRRERDHPSRHRYGARQPRARLTTRRATGRHEGVPTLEGIIQQLVNGIITPATIPSLGPWGVLHSNPMDYAWGANGLDAIITQLLNQFENTGPPPADKEKIQALPTVPVTEEHVGSGLECPVCKDDYALGERVRQLPCNHLFHDGCIVPWLEQHDSCPVCRKSLTGQNTATNPPGLTGVSFSSSSSSSSSSSPSNENATSNS
notes: RNF126, full length cDNA subcloned into the BamHI and SalI sites of pGEX-6P-1; pGEX-6P-1 is surmised to put GST at the N-terminus; also called recombinant protein GST-RNF126; bacterially-produced GST-RNF126; source: E. coli, recombinant
